# Ab-95 light chain CDR variants: yeast mating affinities

Data: MIT Lincoln Laboratory AlphaSeq set, Engelhart et al. 2022, doi:10.1038/s41597-022-01779-4, as distributed in FLAb.

Antigen: PDVDLGDISGINAS, a 14-residue peptide of the SARS-CoV-2 spike HR2 region.

Parent scFv Ab-95: VH joined to VL by the linker GGGGSGGGGSGGGGS. Changes lie in the light chain CDRs alone.
VH: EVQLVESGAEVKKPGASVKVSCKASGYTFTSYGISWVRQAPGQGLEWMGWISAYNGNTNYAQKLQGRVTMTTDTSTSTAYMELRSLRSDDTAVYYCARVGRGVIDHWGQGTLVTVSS
VL: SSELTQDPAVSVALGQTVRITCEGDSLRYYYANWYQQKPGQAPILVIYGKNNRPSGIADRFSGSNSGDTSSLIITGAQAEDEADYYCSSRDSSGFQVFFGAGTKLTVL

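The parent was found by panning a naive human phage display library on the peptide. AAYL52 was designed without a model: most single CDR substitutions and a random sample of double and triple ones. The assay is AlphaSeq: two haploid yeast populations carry antibody and antigen on their surface. After mating in shaken culture at 30 °C for 16 h, diploids were selected and their barcode pairs sequenced. Scores were corrected for input abundance and mapped to Kd with protein pairs of known affinity run in the same pool. The assay was run in three technical replicates.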

The whole VL of each variant is written out. Values are log10 of the apparent Kd in nM; lower means stronger binding. The mean shown is taken over the replicates in which the pair was detected. "n.d." means that the variant was in the library but no mating with the target was seen in that replicate; the authors take this as a sign of poor binding, and no number exists. Nonspecific signal, from three strains lacking the peptide, appeared in 28% of pairings of library AAYL52, centred on 3.91 (5% of these signals below 2.90); values are not corrected for it. For each scFv, signals with the empty controls are counted beside the result, with their mean in brackets.

| VL | log10 Kd, replicates | mean, log10 nM | signal with controls |
|---|---|---|---|
| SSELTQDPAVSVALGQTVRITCEGDSLQYYYANWYQQKPGQAPILVIYGKNNRPSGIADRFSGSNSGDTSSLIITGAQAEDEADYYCTSRDESGFQVFFGAGTKLTVL | 4.05 n.d. n.d. | 4.05 | 0/9 |
| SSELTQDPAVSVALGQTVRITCEGLSLRYYYANWYQQKPGQAPILVIYMKNNRPSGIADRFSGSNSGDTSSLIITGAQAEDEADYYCFSRDSSGFQVFFGAGTKLTVL | 2.99 3.80 n.d. | 3.40 | 0/9 |
| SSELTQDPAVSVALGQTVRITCEGDSLRYYYAQWYQQKPGQAPILVIYGDNNRPSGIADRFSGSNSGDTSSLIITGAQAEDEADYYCSSRDSCGFQVFFGAGTKLTVL | 4.05 n.d. 4.01 | 4.03 | 3/9 (3.85) |
| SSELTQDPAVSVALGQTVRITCEGDPLRYNYANWYQQKPGQAPILVIYGKNNRVSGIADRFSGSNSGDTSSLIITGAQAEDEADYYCSSRDSSGFQVFFGAGTKLTVL | 0.21 0.22 -0.55 | -0.04 | 5/9 (4.44) |
| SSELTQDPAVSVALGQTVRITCEEDSLRVYYANWYQQKPGQAPILVIYGKNNRPSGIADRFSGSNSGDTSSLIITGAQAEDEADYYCSSRDGSGFQVFFGAGTKLTVL | 3.70 n.d. n.d. | 3.70 | 4/9 (3.82) |
| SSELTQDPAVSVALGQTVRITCEGDSLRYYYANWYQQKPGQAPILVIYGPNNRPSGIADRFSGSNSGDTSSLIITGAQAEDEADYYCSSRDSRGNQVFFGAGTKLTVL | 2.31 2.55 2.12 | 2.33 | 3/9 (4.18) |
| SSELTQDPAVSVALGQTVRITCIGDSLRYYYENWYQQKPGQAPILVIYGKNNRPYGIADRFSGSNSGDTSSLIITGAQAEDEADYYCSSRDSSGFQVFFGAGTKLTVL | n.d. 5.54 n.d. | 5.54 | 2/9 (3.69) |
| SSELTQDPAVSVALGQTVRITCEGDSLWYYFANWYQQKPGQAPILVIYGDNNRPSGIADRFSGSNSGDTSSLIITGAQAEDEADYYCSSRDSSGFQVFFGAGTKLTVL | 3.37 2.55 n.d. | 2.96 | 1/9 (3.80) |
| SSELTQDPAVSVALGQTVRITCEGDSGRPYYANWYQQKPGQAPILVIYGKNNRPSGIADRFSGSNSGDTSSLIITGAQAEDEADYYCSSRDSSGFQVFFGAGTKLTVL | 2.11 2.47 2.09 | 2.23 | 2/9 (3.78) |
| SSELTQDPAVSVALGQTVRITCEGDSLRINYANWYQQKPGQAPILVIYGKNNRPSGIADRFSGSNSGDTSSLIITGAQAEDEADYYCSSRDSSGLQVFFGAGTKLTVL | 1.84 2.11 1.90 | 1.95 | 2/9 (4.39) |
| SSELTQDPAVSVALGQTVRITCEGDSLRYYYNNWYQQKPGQAPILVIYGKNNRPSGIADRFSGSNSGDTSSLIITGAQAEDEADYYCSSRDSSQFQVFFGAGTKLTVL | 4.87 3.13 3.48 | 3.83 | 6/9 (4.63) |
| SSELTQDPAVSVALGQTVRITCEGDSKRYYYSHWYQQKPGQAPILVIYGKNNRPSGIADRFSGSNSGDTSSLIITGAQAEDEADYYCSSRDSSGFQVFFGAGTKLTVL | n.d. n.d. 4.22 | 4.22 | 3/9 (3.63) |
| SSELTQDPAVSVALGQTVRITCEGDSLRYYYANWYQQKPGQAPILVIYTKNNRPSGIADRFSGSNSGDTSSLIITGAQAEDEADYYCSSRDSSGFQVHFGAGTKLTVL | n.d. 3.48 3.62 | 3.55 | 1/9 (3.90) |
| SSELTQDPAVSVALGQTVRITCFGDSLRYYYANWYQQKPGQAPILVIYGMNNRPSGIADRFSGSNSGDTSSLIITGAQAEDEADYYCSSRDSSGRQVFFGAGTKLTVL | 2.98 2.40 1.88 | 2.42 | 5/9 (4.13) |
| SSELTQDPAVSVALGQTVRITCELDSLRYYYANWYQQKPGQAPILVIYGKNNKPSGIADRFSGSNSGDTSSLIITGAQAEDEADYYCSSRDSSGFYVFFGAGTKLTVL | 3.17 n.d. 4.28 | 3.72 | 3/9 (4.08) |
| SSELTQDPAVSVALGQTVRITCEGDLLRYYQANWYQQKPGQAPILVIYGKNNRPSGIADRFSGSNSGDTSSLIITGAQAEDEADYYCSSRDSSGIQVFFGAGTKLTVL | 4.44 n.d. n.d. | 4.44 | 6/9 (4.03) |
| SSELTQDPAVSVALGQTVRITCEGDSLREYYANWYQQKPGQAPILVIYGKNNRPSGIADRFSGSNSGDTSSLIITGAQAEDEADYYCSSRWSAGFQVFFGAGTKLTVL | 1.94 2.01 2.09 | 2.01 | 2/9 (4.05) |
| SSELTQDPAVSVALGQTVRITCEGDSLRYYYWNWYQQKPGQAPILVIYGKNNRPSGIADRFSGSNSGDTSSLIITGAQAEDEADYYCSSRASSKFQVFFGAGTKLTVL | n.d. n.d. n.d. | n.d. | 2/9 (3.60) |
| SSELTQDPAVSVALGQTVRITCEGDYLRYFHANWYQQKPGQAPILVIYGKNNRPSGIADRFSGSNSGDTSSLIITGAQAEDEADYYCSSRDSSGFQVFFGAGTKLTVL | 2.97 2.57 3.25 | 2.93 | 1/9 (3.08) |
| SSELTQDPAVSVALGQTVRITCEGDSLRYYYGNWYQQKPGQAPILVIYGKNNRPSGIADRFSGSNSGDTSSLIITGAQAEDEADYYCSHRTSSGFQVFFGAGTKLTVL | 5.31 n.d. n.d. | 5.31 | 0/9 |